Screening data deposited in PubChem by Broad Institute.
Yeast UUG start – modulators of yeast start codon fidelity, primary screen, whole organism, S. cerevisiae, single point, plate reader | AID 602363, 2012 | actives 0.13% (n = 350,000) | activity score, % at 18.7 µM | S. cerevisiae UUG-firefly luciferase reporter, luminescence/redox ratio;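 active means replicate mean at a twofold rise or more, about +100% in these data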;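 further: firefly luciferase made from a UUG start codon reports start codon fidelity; reporter light over untreated wells divided by growth signal over untreated wells; some hits fall short of that in this replicate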
miR122 inh – blocks miR-122 activity in Huh7 sensor cells | Huh7 miR-122 Renilla luciferase sensor, 48 h; neutral wells = 0, positive control = 100 | activation (reporter increase), % at 12.5 µM | hit rate 0.3% among 340,000 | AID 602342;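 active means mean replicate activation score at least 90 and every replicate individually at or above 90; inconclusive means only one of the two criteria met; inactive means neither criterion met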;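 further: higher luciferase means less miR-122 activity so hits act as miR-122 inhibitors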
esBAF inh – inhibitors of esBAF chromatin remodeling in mouse ES cells. Bmi1-luciferase knock-in reporter, 24 h; 100% = twice the neutral-well signal. hit rate 2% among 350,000. reporter increase, % at 12.5 µM; in the data active means activation above about 40%; inconclusive means no clear call, values can overlap the other calls;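 further: 0% = median of the plate's neutral control wells and 100% = double that signal; a rise in the Bmi1 reporter signal indicates esBAF inhibition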
MITF TRPM1 HTS – increases MITF-driven TRPM1 promoter luciferase signal. SK-MEL-5 TRPM1-promoter luciferase, 24 h; % of positive control, neutral wells = 0. activation, % at 12.5 µM. hit rate 0.75% among 300,000;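 active means mean activation of at least 80% with every replicate also reaching 80%; inconclusive means mean reaches 80% but some replicate falls short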;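 further: 0% = neutral control wells and 100% = parthenolide positive control wells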
PglD inh – blocks C. jejuni PglD acetyltransferase activity. purified PglD enzyme, DTNB colorimetric CoA detection. hit rate 0.098% among 360,000. inhibition, % at 12.5 µM; in the data active means inhibition above about 16%, passing the limit was not always enough; inconclusive means no clear call, values can overlap the other calls
Wnt act – activators of Wnt/beta-catenin signaling; Wnt/beta-catenin reporter cell assay, activator, plate reader; activation, % at 9.35 µM; hit rate 1.2% among 300,000; in the data active means activation above about 30%, passing the limit was not always enough; inconclusive means no clear call, values can overlap the other calls;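 further: 0% = neutral control wells and 100% = positive control wells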
* hit, by the source's call; ? = inconclusive; nt = no result given; ! = repeats disagree; [ ] = another dose, or the depositor's remark. Rows were chosen to be rich in hits. Some 2.8% of all compounds tested hit in one or more screens of this group.

SMILES	Yeast UUG start	miR122 inh	esBAF inh	MITF TRPM1 HTS	PglD inh	Wnt act
CO[C@H]1CC[C@@H]2CCN(C)C(=O)[C@@H](C)N(C)C(=O)c3cc(C#N)ccc3OC[C@H]1O2	nt	nt	3	nt	nt	nt
CC1CCCCC1NC(=S)Nc1ccc(SC(F)F)cc1 (stereo unspecified)	-15	115*	26	40	4	nt
FC(F)Sc1ccc(NC(=S)NCC2CCCCC2)cc1	-32	nt	24	16	1	8
FC(F)Sc1ccc(NC(=S)NC2CCCCC2)cc1	-38	121*	50*	69	7	nt
CCCN1[C@H](C(=O)N(C)C)[C@@H](CO)[C@@H]2Cn3c(ccc(-c4ccccc4OC)c3=O)[C@@H]21	nt	nt	2	nt	-2	nt
CCCNC(=O)N(C)C[C@@H]1Oc2cc(C#CCC(C)C)ccc2S(=O)(=O)N([C@H](C)CO)C[C@H]1C	11	26[16.7 µM]	1	nt	-2	nt
COc1ccc(-c2csc(NC(=O)C3=COCCO3)n2)c(OC)c1	nt	nt	nt	75	nt	9
C=CCNc1nc(-c2ccc(OC)cc2OC)cs1	-17	6	55*	78	3	nt
OC1(c2cccc(C(F)(F)F)c2)CCN(c2ccc(-c3ccccc3)nn2)CC1	-21	2	67*	67	2	-2
CCCC(=O)Nc1ccc2c(c1)C(=O)N(C)C[C@H](OC)[C@@H](C)CN(CC1CCOCC1)[C@@H](C)CO2	nt	-1[16.7 µM]	2	nt	nt	nt

Random excerpt: 5 records from the list
SMILES	Yeast UUG start	miR122 inh	esBAF inh	MITF TRPM1 HTS	PglD inh	Wnt act
CC1CCCCC1NC(=S)Nc1ccc(SC(F)F)cc1 (stereo unspecified)	-15	115*	26	40	4	nt
FC(F)Sc1ccc(NC(=S)NCC2CCCCC2)cc1	-32	nt	24	16	1	8
CCCC(=O)Nc1ccc2c(c1)C(=O)N(C)C[C@H](OC)[C@@H](C)CN(CC1CCOCC1)[C@@H](C)CO2	nt	-1[16.7 µM]	2	nt	nt	nt
CCCNC(=O)N(C)C[C@@H]1Oc2cc(C#CCC(C)C)ccc2S(=O)(=O)N([C@H](C)CO)C[C@H]1C	11	26[16.7 µM]	1	nt	-2	nt
CO[C@H]1CC[C@@H]2CCN(C)C(=O)[C@@H](C)N(C)C(=O)c3cc(C#N)ccc3OC[C@H]1O2	nt	nt	3	nt	nt	nt

New compounds follow.
SMILES	Yeast UUG start	miR122 inh	esBAF inh	MITF TRPM1 HTS	PglD inh	Wnt act
Cc1noc(C)c1NC(=O)N(C)C[C@H]1Oc2ccc(NC(=O)Nc3cccc4ccccc34)cc2CC(=O)N([C@@H](C)CO)C[C@@H]1C	10	-2[16.7 µM]	7	nt	2	nt
Cc1ccc2c(c1)C1(C(=O)N2)N2CCCC2C(C(=O)c2ccc3ccccc3c2)C12C(=O)Nc1ccccc12 (stereo unspecified)	-2	-13	50*!	16	-1	22
O=C1CCC(C(=O)N2CCCC(C(=O)c3ccc4ccccc4c3)C2)=NN1 (stereo unspecified)	-6	-5	3	0	14	-5
C[C@@H]1CN([C@H](C)CO)C(=O)c2cccc(NC(=O)c3cnccn3)c2O[C@H]1CN(C)S(=O)(=O)c1ccc(F)cc1	nt	1[16.7 µM]	-4	nt	nt	nt
C=CCn1cnc2c(nnn2-c2ccc(C)c(C)c2)c1=O	nt	nt	nt	110*	nt	5
C=CCS/C(=N\n1cnc2ccccc2c1=O)N(CC)CC	nt	-6	nt	-11	nt	nt
C=CCS/C(=N\n1cnc2ccccc2c1=O)N1CCCCC1	-14	5	53*	26	-3	nt
C[C@H](CO)N1C[C@H](C)[C@@H](CN(C)C(=O)NC2CCCCC2)Oc2ccc(NC(=O)C3CC3)cc2CC1=O	11	1[16.7 µM]	3	nt	3	nt
COc1ccccc1NS(=O)(=O)c1cc(NC(=O)c2[nH]c(C)c(C(C)=O)c2C)ccc1N1CCOCC1	nt	nt	nt	-21	nt	-1
Cc1ccc(NC(=O)c2ccncc2)cc1S(=O)(=O)N(C)C	-16	-1	nt	-2	1	-2
CC(=O)c1c(C)[nH]c(C(=O)Nc2ccc(C)c(S(=O)(=O)N(C)C)c2)c1C	-16	17	32	93*	8	10
Cc1ccc(NC(=O)c2ccc(Br)o2)cc1S(=O)(=O)N(C)C	nt	7	55*	34	nt	23
CC(=O)c1c(C)[nH]c(C(=O)Nc2ccc(C)c(S(=O)(=O)Nc3ccc(C)cc3C)c2)c1C	11	166*	5	-16	-2	-1
Cc1noc(C)c1S(=O)(=O)Nc1ccc2c(c1)C(=O)N([C@@H](C)CO)C[C@H](C)[C@@H](CN(C)Cc1ccccc1)OCCCC[C@H](C)O2	3	12[16.7 µM]	2	nt	2	nt
CC(C)(C)c1nc2sc3c(c2c(=O)o1)CCCC3	-14	2	-2	-5	-7	-1
O=c1oc(-c2cccs2)nc2sc3c(c12)CCCCC3	-8	3	43*	?	2	-6
O=c1oc(-c2cc3ccccc3o2)nc2sc3c(c12)CCCC3	-9	0	53*	101*	0	15
Cc1ccccc1-c1nc2sc3c(c2c(=O)o1)CCC3	-15	-2	8	65	2	0
O=c1oc(/C=C/c2ccccc2)nc2sc3c(c12)CCC3	-10	-2	nt	105*	-4	6
O=c1oc(-c2ccccc2)nc2sc3c(c12)CCCC3	-16	-8	56*	58	-2	nt
Cc1noc(C)c1NC(=O)N(C)C[C@H]1Oc2ccc(NS(=O)(=O)c3c(C)noc3C)cc2C(=O)N([C@@H](C)CO)C[C@H]1C	7	-3[16.7 µM]	3	nt	nt	nt
O=C(C[C@@H]1C[C@H]2c3cc(NC(=O)Nc4ccccc4)ccc3O[C@H]2[C@@H](CO)O1)NCCN1CCCCC1	nt	-1[16.7 µM]	-1	nt	0	nt
CCCNC(=O)N(C)C[C@H]1Oc2cc(-c3ccccc3F)ccc2S(=O)(=O)N([C@H](C)CO)C[C@H]1C	9	nt	-3	nt	0	nt
O=c1oc(-c2cccs2)nc2scc(-c3cccs3)c12	-20	-5	64*	nt	-3	11
Cc1nc2scc(-c3cccs3)c2c(=O)o1	nt	2	nt	-13	nt	nt
COc1ccccc1-c1ccc2c(c1)[C@@H]1[C@@H](CCN1S(=O)(=O)c1cccc(F)c1)[C@H](CO)N2	-7	-3[16.7 µM]	7	nt	2	nt
CCCCOc1ccc(C(=O)N=c2sccn2C)cc1OC	3	nt	57*	?	-4	37*
Cc1ccc(C(=O)N=c2sccn2C)cc1S(=O)(=O)N1CCOCC1	-12	nt	63*	99*	-1	9
Cc1cccc(C(=O)N=c2sccn2C)c1[N+](=O)[O-]	8	nt	56*	100*	2	6
Cn1ccsc1=NC(=O)c1ccc(Cl)c([N+](=O)[O-])c1	-20	1	83*	56	2	11
CCOC(=O)c1cnn(-c2ccccc2)c1NC(=O)c1ccccc1C	-15	-5	-8	-4	4	39*
Cc1ccccc1C(=O)Nc1c(C(=O)N2CCCC2)cnn1-c1ccccc1	-3	-3	2	3	-1	0
Cc1cccc(NC(=O)c2cnn(-c3ccccc3)c2C)c1C	-21	-12	63*	nt	2	0
Cc1ccc(C)c(NC(=O)c2cnn(-c3ccccc3)c2C)c1	-14	3	27	nt	4	9
CCc1ccccc1NC(=O)c1cnn(-c2ccccc2)c1C	-10	-5	23	39	-5	2
Cc1ccccc1NC(=O)c1cnn(-c2ccccc2)c1C	-7	-3	75*	64	-2	?
COc1ccccc1-c1ccc2c(c1)[C@H]1[C@H](CCN1S(=O)(=O)c1ccccc1OC)[C@@H](CO)N2	-15	18[16.7 µM]	-4	nt	-3	nt
C[C@H](CO)N1C[C@H](C)[C@@H](CN(C)C(=O)C2CCCCC2)Oc2cc(-c3cncnc3)ccc2S1(=O)=O	6	nt	-6	nt	44	nt
CO[C@@H]1CN(C)C(=O)c2cc(NC(=O)C3CC3)ccc2OC[C@H](C)N(C)C[C@H]1C	-5	nt	1	nt	6	nt

Ordered by value in esBAF inh (lowest first): some entries from above.
SMILES	Yeast UUG start	miR122 inh	esBAF inh	MITF TRPM1 HTS	PglD inh	Wnt act
CCOC(=O)c1cnn(-c2ccccc2)c1NC(=O)c1ccccc1C	-15	-5	-8	-4	4	39*
Cc1ccccc1C(=O)Nc1c(C(=O)N2CCCC2)cnn1-c1ccccc1	-3	-3	2	3	-1	0
Cc1cccc(NC(=O)c2cnn(-c3ccccc3)c2C)c1C	-21	-12	63*	nt	2	0
